In PubChem BioAssay AID624466 (The Scripps Research Institute Molecular Screening Center, 2012):
The entries are a selection whose mix differs from that of the whole data set. Activity calls are given as the source filed them.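 Rule for the calls: active = inhibition above a per-plate cutoff, the mean inhibition of test compounds on that plate plus 3 SD (cut at about 49% in these data); inactive = the rest.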

Chains of the proteins cited; added tags and fusions are not shown.
UniProt Q96RJ0, whole entry: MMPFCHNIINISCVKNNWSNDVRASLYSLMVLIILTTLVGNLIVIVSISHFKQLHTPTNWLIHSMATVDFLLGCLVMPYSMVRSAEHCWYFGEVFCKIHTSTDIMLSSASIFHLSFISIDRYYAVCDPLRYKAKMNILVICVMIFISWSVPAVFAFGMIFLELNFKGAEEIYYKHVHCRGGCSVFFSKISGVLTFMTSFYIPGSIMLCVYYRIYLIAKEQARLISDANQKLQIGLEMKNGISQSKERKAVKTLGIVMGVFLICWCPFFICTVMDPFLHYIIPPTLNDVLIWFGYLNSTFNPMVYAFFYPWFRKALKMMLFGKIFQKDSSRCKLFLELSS

Biological target: Trace amine-associated receptor 1 (Homo sapiens) (UniProt Q96RJ0)
Assay: blockers of beta-PEA-driven TAAR1 calcium signal – Fluo-8 calcium fluorescence, CHO RD-HGA16 cells, primary screen (AID 624466);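 note: 0% = DMSO plus EC80 beta-PEA response and 100% = DMSO alone without agonist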
Conditions: CHO RD-HGA16 TAAR1, Fluo-8 calcium fluorescence, antagonist; at 3 µM; hits give high values

Question: `CCOC(=O)c1ccc(NP(C)(=O)Oc2ccc(F)cc2)cc1` (stereo not given) was tested. Which inhibition did it give?
Answer: inactive: 8.39%

Question: `CCN(CC)CCCOC(=O)C(O)(c1ccccc1)C1CCCCC1` (stereo not given) was tested. Which inhibition did it give?
Answer: inactive: -9.35%

Question: With `Cc1c([N+](=O)[O-])cc([N+](=O)[O-])c(Br)c1[N+](=O)[O-]` as the compound, how does the inhibition read?
Answer: inactive: -15.8%

Question: With `CCCCCOc1ccc(NP(C)(=O)Oc2ccc(Cl)cc2Cl)cc1` (stereo not given) as the compound, how does the inhibition read?
Answer: inactive: -47.1%

Question: For `O=[N+]([O-])c1cc([N+](=O)[O-])c(OC2CCCCC2O)c([N+](=O)[O-])c1` (stereo not given), which inhibition is on record?
Answer: inactive: -2.32%

Question: `CP(=O)(Nc1ccccc1)Oc1ccc(F)cc1` (stereo not given) was tested. Which inhibition did it give?
Answer: inactive: -22.9%

Question: Which inhibition does the source give for `O=C(O)c1cccc(Nc2c([N+](=O)[O-])cc([N+](=O)[O-])cc2[N+](=O)[O-])c1` here?
Answer: inactive: -26.4%

Question: How did the inhibition turn out when `CC1=NCCc2c1[nH]c1ccccc21.O=[N+]([O-])c1cc([N+](=O)[O-])c(O)c([N+](=O)[O-])c1` was run?
Answer: inactive: -14.1%

Question: `COc1ccccc1OP(C)(=O)Nc1cccc(Br)c1` (stereo not given) was tested. Which inhibition did it give?
Answer: inactive: -6.79%

Question: `Cc1cc(C)cc(OP(C)(=O)Nc2ccc(C)cc2C)c1` (stereo not given) was tested. Which inhibition did it give?
Answer: inactive: 2.73%

Question: For `CCOC(=O)c1ccc(NP(C)(=O)Oc2cc(C)cc(C)c2)cc1` (stereo not given), which inhibition is on record?
Answer: inactive: -6.87%

Question: For `CP(=O)(Nc1cccc(Br)c1)Oc1ccccc1` (stereo not given), which inhibition is on record?
Answer: inactive: 4.29%

Question: For `Cc1cc(C)cc(OP(C)(=O)Nc2ccccn2)c1` (stereo not given), which inhibition is on record?
Answer: inactive: -3.16%

Question: `Cc1ccc(C)c(NP(C)(=O)Oc2ccccc2)c1` (stereo not given) was tested. Which inhibition did it give?
Answer: inactive: 7.75%

Question: With `O=[N+]([O-])c1cc([N+](=O)[O-])c(-n2nnc3ccccc32)c([N+](=O)[O-])c1` as the compound, how does the inhibition read?
Answer: inactive: 1.53%

Question: For `CN(Cc1cccnc1)C(=O)COc1ccc(Cl)c(Cl)c1.O=[N+]([O-])c1cc([N+](=O)[O-])c(O)c([N+](=O)[O-])c1`, which inhibition is on record?
Answer: inactive: -15.6%

Question: With `O=[N+]([O-])c1cc([N+](=O)[O-])c(-c2cnn(-c3ccccc3)c2)c([N+](=O)[O-])c1` as the compound, how does the inhibition read?
Answer: inactive: -29.6%

Question: With `Cc1nc2ccc3ccccc3c2s1.O=[N+]([O-])c1cc([N+](=O)[O-])c(O)c([N+](=O)[O-])c1` as the compound, how does the inhibition read?
Answer: inactive: -9.47%

Question: How did the inhibition turn out when `CCOC(=O)C(CC)C1=NC(C)(C)Cc2ccccc21.O=[N+]([O-])c1cc([N+](=O)[O-])c(O)c([N+](=O)[O-])c1` (stereo not given) was run?
Answer: inactive: 6.91%

Question: For `O=[N+]([O-])c1cc([N+](=O)[O-])c(Nc2nnnn2CCO)c([N+](=O)[O-])c1`, which inhibition is on record?
Answer: inactive: 4.85%

Question: For `CN1CCCCC1COC(=O)C1(O)c2ccccc2CCc2ccccc21` (stereo not given), which inhibition is on record?
Answer: inactive: -5.52%

Question: `COc1ccccc1OP(C)(=O)Nc1c(C)cccc1C` (stereo not given) was tested. Which inhibition did it give?
Answer: inactive: -0.28%

Question: How did the inhibition turn out when `CP(=O)(Nc1ccc(SC(F)(F)F)cc1)Oc1ccccc1` (stereo not given) was run?
Answer: inactive: 10.4%

Question: Which inhibition does the source give for `CCCOc1ccc(NP(C)(=O)Oc2ccc(Cl)cc2)cc1` (stereo not given) here?
Answer: inactive: -15.8%

Question: With `COc1ccc(-c2ccccn2)cc1.O=[N+]([O-])c1cc([N+](=O)[O-])c(O)c([N+](=O)[O-])c1` as the compound, how does the inhibition read?
Answer: inactive: -34.6%

Question: With `CP(=S)(Nn1cnnc1)Oc1ccccc1` (stereo not given) as the compound, how does the inhibition read?
Answer: inactive: -10.1%

Question: `COc1ccccc1OP(C)(=O)Nc1ccccc1` (stereo not given) was tested. Which inhibition did it give?
Answer: inactive: 17.7%

Question: `CP(=O)(Nc1ccccc1Br)Oc1ccccc1` (stereo not given) was tested. Which inhibition did it give?
Answer: inactive: 3.56%

Question: `CP(=O)(Oc1ccccc1)OC(c1ccccc1)C(F)(F)F` (stereo not given) was tested. Which inhibition did it give?
Answer: inactive: -24.2%

Question: How did the inhibition turn out when `CP(=O)(Nc1ccc(SC(F)(F)F)cc1)Oc1ccc(Cl)cc1` (stereo not given) was run?
Answer: inactive: -23.7%

Question: Which inhibition does the source give for `Cc1cccc(C)c1OP(C)(=O)Nc1ccc(SC(F)(F)F)cc1` (stereo not given) here?
Answer: inactive: -7.31%

Question: `Cc1cc(C)cc(OP(C)(=O)Nc2ccc(SC(F)(F)F)cc2)c1` (stereo not given) was tested. Which inhibition did it give?
Answer: inactive: 30.2%

Question: With `CCc1ccc(OP(C)(=O)N2CCN(c3ccc([N+](=O)[O-])cc3)CC2)cc1` (stereo not given) as the compound, how does the inhibition read?
Answer: inactive: -3.4%

Question: For `CP(=O)(NC(=O)Nc1ccccc1)Oc1ccccc1` (stereo not given), which inhibition is on record?
Answer: inactive: 5.41%

Question: With `CCOP(C)(=S)SCC(=O)NC(C)C(=O)O` (stereo not given) as the compound, how does the inhibition read?
Answer: inactive: 4.76%

Question: How did the inhibition turn out when `O=[N+]([O-])c1cc([N+](=O)[O-])c(O)c([N+](=O)[O-])c1.c1ccc(Oc2ccncc2)cc1` was run?
Answer: inactive: -38.3%

Question: With `CCOC(=O)c1ccc(NP(C)(=O)Oc2ccc(OC)cc2)cc1` (stereo not given) as the compound, how does the inhibition read?
Answer: inactive: 0.35%

Question: With `CP(=O)(Nc1ccccn1)Oc1ccc(Cl)cc1` (stereo not given) as the compound, how does the inhibition read?
Answer: inactive: 3.24%

Question: For `CCN(CC)CCCOC(=O)C(O)(c1ccccc1)c1ccccc1`, which inhibition is on record?
Answer: inactive: 4.09%

Question: How did the inhibition turn out when `COc1ccccc1-c1ccccn1.O=[N+]([O-])c1cc([N+](=O)[O-])c(O)c([N+](=O)[O-])c1` was run?
Answer: inactive: -3.93%

Question: Which inhibition does the source give for `O=[N+]([O-])c1cc([N+](=O)[O-])c(Nc2cccnc2)c([N+](=O)[O-])c1` here?
Answer: inactive: 11.9%

Question: With `Cc1cccc(C)c1OP(C)(N)=O` (stereo not given) as the compound, how does the inhibition read?
Answer: inactive: -14.6%

Question: How did the inhibition turn out when `CC(C)(C)c1ccc(OP(C)(=O)Nc2ccc(SC(F)(F)F)cc2)cc1` (stereo not given) was run?
Answer: inactive: 29.1%

Question: For `O=[N+]([O-])c1ccc2c(c1)C=Nc1ccccc1O2`, which inhibition is on record?
Answer: inactive: -15%

Question: With `CCOC(=O)c1ccc(NP(C)(=O)Oc2ccccc2)cc1` (stereo not given) as the compound, how does the inhibition read?
Answer: inactive: 0.32%

Question: Which inhibition does the source give for `Cc1ccc(NP(C)(=O)Oc2ccccc2)c(C)c1` (stereo not given) here?
Answer: inactive: -7.06%

Question: For `COc1ccccc1OP(C)(=O)Nc1ccc(C)cc1` (stereo not given), which inhibition is on record?
Answer: inactive: 5.12%

Question: For `COc1ccc(OP(C)(=O)Nc2cccc(F)c2)cc1` (stereo not given), which inhibition is on record?
Answer: inactive: -7%

Question: For `COc1ccccc1OP(C)(=O)Nc1cc(Cl)ccc1C` (stereo not given), which inhibition is on record?
Answer: inactive: 2.28%

Question: `Cc1cc(C)cc(OP(C)(N)=O)c1` (stereo not given) was tested. Which inhibition did it give?
Answer: inactive: -16.8%
